Laboratory results: PubChem BioAssay AID619 (University of Pittsburgh Molecular Library Screening Center, 2007)
This is a selection; strong and weak results do not stand in their true shares. Activity calls are given as the source filed them.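 Rule for the calls: active = inhibition of 50% or more in the single-concentration screen; inactive = inhibition below 50%.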

The chains behind the UniProt entries cited, without tags or fusion partners.
UniProt P53350, whole entry: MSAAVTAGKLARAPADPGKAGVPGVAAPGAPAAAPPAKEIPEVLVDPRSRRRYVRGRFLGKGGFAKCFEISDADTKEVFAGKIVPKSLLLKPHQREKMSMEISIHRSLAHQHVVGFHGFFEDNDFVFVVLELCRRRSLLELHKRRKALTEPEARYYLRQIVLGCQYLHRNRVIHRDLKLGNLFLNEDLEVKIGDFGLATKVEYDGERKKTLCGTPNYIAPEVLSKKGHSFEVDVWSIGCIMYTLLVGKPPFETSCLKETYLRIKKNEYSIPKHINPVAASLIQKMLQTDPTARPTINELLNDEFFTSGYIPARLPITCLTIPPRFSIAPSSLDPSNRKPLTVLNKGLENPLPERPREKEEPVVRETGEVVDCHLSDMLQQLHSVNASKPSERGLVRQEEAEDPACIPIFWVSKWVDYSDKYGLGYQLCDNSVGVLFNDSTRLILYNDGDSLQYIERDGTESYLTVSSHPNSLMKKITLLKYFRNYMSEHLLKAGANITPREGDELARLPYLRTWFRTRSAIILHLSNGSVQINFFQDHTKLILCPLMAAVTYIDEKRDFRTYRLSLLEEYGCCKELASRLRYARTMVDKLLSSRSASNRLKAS

These compounds were tested against Serine/threonine-protein kinase PLK1 (Homo sapiens) (UniProt P53350) (assay: Plk1 peptide phosphorylation blockers – biochemical, TR-FRET, primary screen (AID 619;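 note: 0% = DMSO max control and 100% = H-89 dihydrochloride min control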)). Details: recombinant PLK1 kinase, at 10 µM, stronger effect = higher value.
With `CCOc1ncccc1C(=O)NCC1(N2CCOCC2)CCCCC1` the inhibition was inactive: -5.04%. With `CCC(CO)(C(=O)OC1CN2CCC1CC2)c1ccccc1` (stereo not given) the inhibition was inactive: -13.5%. `N/C(=N\O)c1c(N)no[n+]1[O-]` was tested, and the inhibition was inactive: -7.37%. `c1ccc(CN2CCC(Nc3ccccc3)CC2)cc1` was tested, and the inhibition was inactive: -9.4%. With `N#CC1(Nc2ccccc2)CCN(CCc2ccccc2)CC1` the inhibition was inactive: -8.05%. With `O=C(NCC1(N2CCOCC2)CCCCC1)c1cc(=O)[nH]c2ccccc12` the inhibition was inactive: -11.1%. For `CN1CCC(Nc2cccc(F)c2)CC1`, the inhibition was inactive: -5.48%. For `O=C(NCC1(N2CCOCC2)CCCCC1)c1cc2ccccc2o1`, the inhibition was inactive: -12.4%. In the case of `O=C(OC1CN2CCC1CC2)C1c2ccccc2Oc2ccccc21` (stereo not given), the inhibition is reported as inactive: -2.37%. For `COc1ccc(NC2CCN(CCc3ccccc3)CC2)c(OC)c1`, the inhibition was inactive: -16.5%.
